The experiment concerns the target T1, Sortase A (Ss-SrtA) (Streptococcus suis, UniProt Q8VUP7).
T1 construct: residues N24-Q235, C-terminal His-tag
Briefly: fluorescence-quenched peptide (abz-LPATG-dnp) hydrolysis assay with recombinant enzyme. Type of experiment: biochemical.

By UniProt entry, the sequences of proteins in these tests, tags left out.
UniProt Q8VUP7, entry or part of it: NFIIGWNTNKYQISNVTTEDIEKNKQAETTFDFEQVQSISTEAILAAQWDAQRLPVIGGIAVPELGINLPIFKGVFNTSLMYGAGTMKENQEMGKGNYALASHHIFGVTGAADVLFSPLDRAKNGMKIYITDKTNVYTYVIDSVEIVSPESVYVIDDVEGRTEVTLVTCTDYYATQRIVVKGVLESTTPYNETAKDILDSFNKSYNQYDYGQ

Molecules are shown by their SMILES.

For the compound `O=c1c(O[C@@H]2O[C@H](CO)[C@@H](O)[C@H](O)[C@H]2O)c(-c2ccc(O)c(O)c2)oc2cc(O)cc(O)c12` [isoquercitrin], the IC50 came to 100 ± 1.3 µM.

The IC50 is the midpoint of a concentration-inhibition curve.

(Values after publication PMC5358767, “Streptococcus suis sortase A is Ca^2+ independent and is inhibited by acteoside, isoquercitrin and baicalin” (PLoS ONE, 2017).)
